Measured values taken from ChEMBL document CHEMBL1150292, “4-benzyl-1H-imidazoles with oxazoline termini as histamine H3 receptor agonists” (J Med Chem, 2008).

Amino acid sequences for entries named in this document (tags omitted). A change or cut given only in a name is not applied to a line headed by its entry.
UniProt Q9Y5N1: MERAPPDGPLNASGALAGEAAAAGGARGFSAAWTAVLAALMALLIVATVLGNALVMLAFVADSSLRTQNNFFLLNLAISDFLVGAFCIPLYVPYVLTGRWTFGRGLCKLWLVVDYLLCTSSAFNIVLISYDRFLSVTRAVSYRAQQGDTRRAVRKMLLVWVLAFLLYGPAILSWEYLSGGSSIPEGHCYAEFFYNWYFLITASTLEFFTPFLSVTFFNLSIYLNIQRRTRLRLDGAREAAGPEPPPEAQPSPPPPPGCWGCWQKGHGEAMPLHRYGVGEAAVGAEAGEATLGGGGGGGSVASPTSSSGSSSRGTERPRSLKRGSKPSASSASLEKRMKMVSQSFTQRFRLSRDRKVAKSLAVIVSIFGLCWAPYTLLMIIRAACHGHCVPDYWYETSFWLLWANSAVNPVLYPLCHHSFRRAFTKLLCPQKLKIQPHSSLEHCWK

Target: Histamine H3 receptor (Homo sapiens, UniProt Q9Y5N1)
Assay: Displacement of [3H]N-alpha-methylhistamine from human histamine H3 receptor expressed in CHO cells
Assay type: cell-based

Compound: NC(=NCc1ccc(Cl)cc1)SCCCc1cnc[nH]1 [CLOBENPROPIT]
- Ki: 0.339 nM
